# Test results: PubChem BioAssay AID1768 (National Center for Advancing Translational Sciences (NCATS), 2009)
# Sequences of proteins named here, by UniProt entry; tags and fusion partners are left off.
# UniProt O00255, whole entry, looked up: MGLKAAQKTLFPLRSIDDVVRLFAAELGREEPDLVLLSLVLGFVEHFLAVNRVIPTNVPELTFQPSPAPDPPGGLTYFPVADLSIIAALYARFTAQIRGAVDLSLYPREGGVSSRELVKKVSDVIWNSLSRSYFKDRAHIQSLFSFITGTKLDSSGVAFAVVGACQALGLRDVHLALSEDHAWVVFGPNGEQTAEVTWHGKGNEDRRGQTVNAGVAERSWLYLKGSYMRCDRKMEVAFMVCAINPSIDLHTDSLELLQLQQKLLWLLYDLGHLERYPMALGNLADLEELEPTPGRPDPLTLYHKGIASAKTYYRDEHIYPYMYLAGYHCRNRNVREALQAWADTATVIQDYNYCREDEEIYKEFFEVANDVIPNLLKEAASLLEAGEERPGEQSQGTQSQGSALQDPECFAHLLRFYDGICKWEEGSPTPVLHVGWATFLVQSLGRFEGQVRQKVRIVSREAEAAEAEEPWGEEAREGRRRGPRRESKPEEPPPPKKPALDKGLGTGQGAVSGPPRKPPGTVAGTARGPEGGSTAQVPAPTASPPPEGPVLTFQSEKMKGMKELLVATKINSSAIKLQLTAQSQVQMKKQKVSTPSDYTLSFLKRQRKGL
# Where “and” joins values, the source holds several entries; their conditions need not be identical. Equal values may be shown once. The entries are a selection whose mix differs from that of the whole data set. Results filed as inconclusive are left out. Calls of active or inactive are those of the source. Calls come from the whole dose curve; as a rule, active = well fitted inhibition curve with a large enough effect in the polarisation, with a control signal flat (not every such curve was filed as active); inconclusive = small, poorly fitted or top-dose-only effect, or effect the other way, or a change in a side signal; inactive = no such curve, though single readings can be large or run the other way; the % refers to the polarisation.
# Biological target: Menin (Homo sapiens) (UniProt O00255)
# Assay: qHTS Assay for Inhibitors Targeting the Menin-MLL Interaction in MLL Related Leukemias: Competition With Texas Red Labeled MLL-derived Mutant Peptide; note: % of control where 0% means no effect
# Conditions: fluorescence polarization
# [1] = at 61.6 µM (top of the series) unless noted
smiles,measurement,setting,value
O=[N+]([O-])c1ncn(CCn2ncnc2[N+](=O)[O-])n1,"FP activity change, negative = inhibition",[1],inactive: -2.16%
O=C(O)CNc1ccc([As](=O)(O)O)cc1,"FP activity change, negative = inhibition",[1],inactive: -8.22%
O=C(Nc1cc([As](=O)(O)O)ccc1O)c1ccccc1,"FP activity change, negative = inhibition",[1],inactive: 14.5%
CCN(/C(=N/P(=O)(N1CCOCC1)N1CCOCC1)N1CCOCC1)c1ccc(OC)cc1,"FP activity change, negative = inhibition",[1],inactive: -15.3%
CN(C)C(=O)OCCc1n(C)cc[n+]1C,"FP activity change, negative = inhibition",[1],inactive: -3.52%
CC(C)=N/N=C(\N)N[N+](=O)[O-],"FP activity change, negative = inhibition",[1],inactive: 19.9%
CC(=O)C1=CCCC2CCC1N2 (stereo not given),"FP activity change, negative = inhibition",[1],inactive: 2.77%
COc1ccc(C2=NCC(CBr)S2)cc1 (stereo not given),"FP activity change, negative = inhibition",[1],inactive: -12.1%
CC(=O)N1C2C3N(C(C)=O)C1C1N(C(C)=O)C(C(N1C(C)=O)N3C(C)=O)N2C(C)=O,"FP activity change, negative = inhibition",[1],inactive: 16.6%
O=[N+]([O-])c1cccc2n[nH]nc12,"FP activity change, negative = inhibition",[1],inactive: 1.76%
CCc1nc2c(n1)c1c(non1O)c1c2no[n+]1[O-],"FP activity change, negative = inhibition",[1],inactive: -2.44%
Cc1ccc(NP(=O)(Oc2ccccc2)Oc2ccccc2)nc1,"FP activity change, negative = inhibition",[1],inactive: -23.6%
O=C(NC(Sc1ccncn1)C(Cl)(Cl)Cl)c1ccccc1 (stereo not given),"FP activity change, negative = inhibition",[1],inactive: 0.497%
Cc1c2non([O-])c-2c(C)[n+](=O)[n+]1[O-],"FP activity change, negative = inhibition",[1],inactive: -9.56%
Oc1ccccc1CNc1ccccn1,"FP activity change, negative = inhibition",[1],inactive: 2.67%
NC(=O)c1cc([N+](=O)[O-])cc([N+](=O)[O-])c1N,"FP activity change, negative = inhibition",[1],inactive: -2.84%
Cc1ccc(N/C(=N/P(=O)(N2CCOCC2)N2CCOCC2)N2CCOCC2)cc1,"FP activity change, negative = inhibition",[1],inactive: 0.597%
COc1ccccc1OP(=O)(Nc1ccc(C)cn1)Oc1ccccc1OC,"FP activity change, negative = inhibition",[1],inactive: -12%
CN1CCCC(OC(=O)C(c2ccccc2)c2ccccc2)C1 (stereo not given),"FP activity change, negative = inhibition",[1],inactive: 13.6%
Clc1ccc(Cl)c(NC2=NCC(CBr)S2)c1 (stereo not given),"FP activity change, negative = inhibition",[1],inactive: 3.95%
CCN(N=Nc1nonc1N)c1nonc1N,"FP activity change, negative = inhibition",[1],inactive: 9.18%
CC(=O)Nc1ccc([As](=O)(O)O)cc1,"FP activity change, negative = inhibition",[1],inactive: -7.25%
O=C(O)c1ccccc1[As](=O)(O)O,"FP activity change, negative = inhibition",[1],inactive: -7.29%
CN(C(=O)Cc1ccc(Cl)c(Cl)c1)[C@H]1CCCC[C@@H]1N1CCCC1,"FP activity change, negative = inhibition",at 24.8 µM (top of the series),inactive: -0.394% and inactive: -2.22% and inactive: -10.9%
same,"FP activity change, negative = inhibition",at 61.6 µM (top of the series),inactive: -26.4% and inactive: -10% and inactive: -0.759%
Cc1cc(SC(NC(=O)c2ccc(F)cc2)C(Cl)(Cl)Cl)ncn1 (stereo not given),"FP activity change, negative = inhibition",[1],inactive: 10.4%
CCOP(=O)(Nc1ccccc1)OCC,"FP activity change, negative = inhibition",[1],inactive: -6.28%
CC(=O)NC(SC(=S)N(CC(C)C)CC(C)C)C(Cl)(Cl)Cl (stereo not given),"FP activity change, negative = inhibition",[1],inactive: -12.3%
COC(=O)c1cc2c(s1)N=C(c1ccccc1)N(C)P2(=O)N1CCOCC1 (stereo not given),"FP activity change, negative = inhibition",[1],inactive: -20%
CCC(=O)N1C2C3N(C(=O)CC)C1C1N(C(=O)CC)C(C(N1C(=O)CC)N3C(=O)CC)N2C(=O)CC,"FP activity change, negative = inhibition",[1],inactive: 13.2%
O=C(OC1CN2CCC1CC2)c1ccccc1 (stereo not given),"FP activity change, negative = inhibition",[1],inactive: -3.29% and inactive: -1.64%
CN(C(=O)Cc1ccc(Cl)c(Cl)c1)[C@@H]1CCCC[C@@H]1N1CCCC1,"FP activity change, negative = inhibition",[1],inactive: 7.16%
O=C(NC1CCS(=O)(=O)C1)NP(=S)(Oc1ccccc1)Oc1ccccc1 (stereo not given),"FP activity change, negative = inhibition",[1],inactive: 24.1%
CCNC(=S)/N=C(\N)N[N+](=O)[O-],"FP activity change, negative = inhibition",[1],inactive: -12.5%
CCOC(=O)NC(Sc1ccccc1)C(Cl)(Cl)Cl (stereo not given),"FP activity change, negative = inhibition",[1],inactive: -19.1%
c1ccc(-c2nn[nH]n2)c(-c2nn[nH]n2)c1,"FP activity change, negative = inhibition",[1],inactive: 30.3%
CC(=O)c1ccc(N2CC2c2ccncc2)cc1 (stereo not given),"FP activity change, negative = inhibition",[1],inactive: 2.28%
O=P1(Nc2nc3ccc(Cl)cc3s2)COc2ccccc2O1 (stereo not given),"FP activity change, negative = inhibition",[1],inactive: 18.1%
CC(C)(C)C(=O)NC(Sc1ccccc1)C(Cl)(Cl)Cl (stereo not given),"FP activity change, negative = inhibition",[1],inactive: -15.6%
O=P(Nc1nccs1)(c1ccccc1)c1ccccc1,"FP activity change, negative = inhibition",[1],inactive: -0.445%
CC(C)C(=O)NC(Sc1ccccc1)C(Cl)(Cl)Cl (stereo not given),"FP activity change, negative = inhibition",[1],inactive: -1.73%
CCC(C)(OOC(C)(C)C)OOC(C)(C)C,"FP activity change, negative = inhibition",[1],inactive: 18.7%
CC(=O)NC(SC(=S)N(C)C)C(Cl)(Cl)Cl (stereo not given),"FP activity change, negative = inhibition",[1],inactive: 31.3%
C(Cc1nn[nH]n1)Cc1nn[nH]n1,"FP activity change, negative = inhibition",[1],inactive: -3.56%
O=C(OC1CN2CCC1CC2)c1cccc(Cl)c1 (stereo not given),"FP activity change, negative = inhibition",[1],inactive: -22.8%
CN(C)C1(CNC(=O)c2ccc(Cl)c(S(N)(=O)=O)c2)CCCCC1,"FP activity change, negative = inhibition",[1],inactive: -14.8%
O=P(Nc1ccccn1)(c1ccc(Br)cc1)c1ccc(Br)cc1,"FP activity change, negative = inhibition",[1],inactive: -18.8%
O=P1(Nc2ncccn2)COc2ccccc2OC1,"FP activity change, negative = inhibition",[1],inactive: 9.58%
Cc1ccc(OCC(=O)OC2CN3CCC2CC3)cc1 (stereo not given),"FP activity change, negative = inhibition",[1],inactive: -6.02%
O=P1(Nc2ccc(Br)cn2)COc2ccccc2OC1,"FP activity change, negative = inhibition",[1],inactive: -13.7%
Cc1ccc(C(=O)OC2CN3CCC2CC3)cc1 (stereo not given),"FP activity change, negative = inhibition",[1],inactive: 2.77%
Cc1nn(-c2ccccc2)c2c1P(=O)(N1CCOCC1)N(C)C(c1ccccc1)=N2 (stereo not given),"FP activity change, negative = inhibition",[1],inactive: -20.3%
CN(C)C1(CNC(=O)c2ccc(S(C)(=O)=O)cc2)CCCCC1,"FP activity change, negative = inhibition",[1],inactive: 0.812%
O=[As](O)(c1ccccc1Br)c1ccccc1Br,"FP activity change, negative = inhibition",[1],inactive: -0.815%
CN(C(=O)Cc1ccc(Cl)c(Cl)c1)[C@@H]1CCCC[C@H]1N1CCCC1,"FP activity change, negative = inhibition",[1],inactive: 1.11% and inactive: -13.5%
CC(C)/C=N\N=C(\N)N[N+](=O)[O-],"FP activity change, negative = inhibition",[1],inactive: 0.313%
CCOP(=O)(Nc1ccc(C)cn1)OCC,"FP activity change, negative = inhibition",[1],inactive: 1.8%
CN(CCCl)Cc1cc(Cl)c(NC2=NCCN2)c(Cl)c1,"FP activity change, negative = inhibition",[1],inactive: -2.74%
CCC1=CC2Cc3nc4ccc(Cl)cc4c(N)c3C(C1)C2 (stereo not given),"FP activity change, negative = inhibition",[1],inactive: -1.05%
O=P1(Nc2ccccn2)COc2ccccc2OC1,"FP activity change, negative = inhibition",[1],inactive: 12.7%
Clc1n[nH]nc1-c1nn[nH][15n]1,"FP activity change, negative = inhibition",[1],inactive: 7.88%
CCCOP(=S)(Nc1nc(N)cc(=O)[nH]1)OCCC,"FP activity change, negative = inhibition",[1],inactive: 59.9%
CCOP(=O)(Nc1cccc2ccccc12)OCC,"FP activity change, negative = inhibition",[1],inactive: 0.158%
COc1cc(C2NCCC3(OCCO3)C2(C)C)cc(OC)c1OC (stereo not given),"FP activity change, negative = inhibition",[1],inactive: -4.78%
COc1cc(C(=O)NCC2(N3CCOCC3)CCCCC2)cc(Cl)c1OC(C)C,"FP activity change, negative = inhibition",[1],inactive: -15.3%
